In patent EP4825847A1, “NMDA RECEPTOR ANTAGONIST AND USE THEREOF” (dated 2026):

Assays:
[1] = Solid stability test (purity, crystal form, appearance on storage)
Method: Crystal Form A of the hydrochloride, Crystal Form B of the phosphate, and Crystal Form C of the mesylate of Compound 2 and Crystal Form G of the hydrochloride, Crystal Form I of the phosphate, and Crystal Form J of the mesylate of Compound 3 were respectively packaged and stored at an acceleration condition of 40°C/75% RH, a routing condition of 25°C/60% RH, and a high-temperature condition of 60°C, and the purity, crystal form, and appearance of the compounds were evaluated at different times. Table 20. Solid stability test results of Crystal Form A of Compound 2 hydrochloride

C57BL/6J male mice [2] = test: Toxicity test of compounds (non-toxic dose exploration, epilepsy-like behavior score); settings: i.p.; for NOAEL dosage (mg/kg) (score 0): epilepsy-like behavior score 0; for NOAEL doses: compared with Comparative Compound 2-SS mesylate; for STD10 (mg/kg) (score 8): dose at which 10% of the animals have severe toxic reaction
Method: The exploration test of non-toxic dose of the compound is an important index to evaluate the safety of the compound. High safety will bring a higher treatment window. The animal information was the same as that in Test Example 2.
• 1. The test was carried out in a quiet environment. The animals were weighed and acclimated in the test chamber for at least 30 min before the test. • 2. The compound to be tested was dissolved in 0.9% physiological saline, and the corresponding volume of the compound was intraperitoneally injected (i.p.) according to the weight of mice. The dosage was the target dosage of administration. The number of animals in each group was 2 or 3. • 3. The mice after administration were placed in a transparent observation chamber, and the behavior changes of the mice were video recorded and observed for about one hour. (Note: During the observation period, if the mouse was lying still, the mouse was turned over by hand, and whether the righting reflex (RR) of the mouse disappeared was checked. If disappeared, the mouse was in an anesthetic state, and the time of anesthesia of the mouse was recorded). • 4. After the one-hour observation, the mice were returned to the rearing cage. The observation chamber was wiped with 75% alcohol, to avoid the influence of the information left by animals in the last round (such as the smell of animals' feces and urine) on the next test result. The next round of animals were changed to continue the test.
Table C. Epilepsy-like behavior rating scale for rodents

C57BL/6J male mice [3] = test: Open field test of mice; settings: intraperitoneal administration of 10 mg/kg; compared with the vehicle group
Text: Open field test is a standard behavioral method to evaluate the voluntary movement behavior and the exploratory behavior, which is widely used in the research of neurological and psychiatric diseases such as depression, anxiety, Parkinson's disease and screening of drugs acting on central nervous system.
Due to the limited tests to evaluate the hallucinogenic effect of NMDAR antagonists, the open field test is used in the present invention to evaluate whether the compound affects the spontaneous locomotor activity of mice and also used to indirectly evaluate whether the compound has hallucinogenic effect. Furthermore, the increase of spontaneous locomotor activity of mice is also considered as one of the positive symptoms of schizophrenia. Therefore, the open field test can also be used to evaluate whether the compound has the psychotomimetic-like side effects.
The animal information was the same as that in Test Example 2. The number of animals in each group (N) was 10, the administration mode was intraperitoneal injection or oral administration, the dosage of administration was 5 or 10 mg/kg, and the volume of administration was 10 mL/kg.
Test process: The open field test chamber was a soundproof chamber made of opaque plexiglass and having an inner diameter of 40*40*40 cm, and the analysis software was purchased from Noldus (Ethovision XT 11.5). The test was carried out in a quiet environment. The animals were weighed and acclimated in the test chamber for at least 30 min before the test. Before the test, the software EthoVision XT 11.5 was set, the wild-type mice were placed at the center of the bottom of the chamber, and the activity within 30 min or 20 min was recorded as the baseline. After 30 min, the mice were taken out and given corresponding doses of solvent (control group) or test compound according to their body weight. Immediately after administration, the mice were placed in the same observation chamber as that in the baseline stage, and their activities within 40 min after administration were recorded. The instrument was wiped with 75% alcohol after each test, to avoid the influence of the information left by animals in the last round (such as the smell of animals' feces and urine) on the next test result. The next round of animals were changed to continue the test. After the test, data were collected for statistical analysis. The difference was analyzed by unpaired t-test to have statistical significance, where P<0.05 means that there was a significant difference. ^# P<0.05, * P<0.05, **P<0.01, ***P<0.001, **** P<0.0001. After the test, the distance (cm) traveled by the mice in the control and test compound groups every 5 min was statistically analyzed. 33 to 36.

| SMILES | Appearance ([1]; 0D (start of storage)) | Crystal Form ([1]; 0D (start of storage)) | Purity ([1]; 0D (start of storage)) [%] | Appearance ([1]; 25°C/60% RH, 5D) | Crystal Form ([1]; 25°C/60% RH, 5D) | Purity ([1]; 25°C/60% RH, 5D) [%] | Appearance ([1]; 25°C/60% RH, 10D) | Crystal Form ([1]; 25°C/60% RH, 10D) | Purity ([1]; 25°C/60% RH, 10D) [%] | Appearance ([1]; 25°C/60% RH, 30D) | Crystal Form ([1]; 25°C/60% RH, 30D) | Purity ([1]; 25°C/60% RH, 30D) [%] | Appearance ([1]; 40°C/75% RH, 5D) | Crystal Form ([1]; 40°C/75% RH, 5D) | Purity ([1]; 40°C/75% RH, 5D) [%] | Appearance ([1]; 40°C/75% RH, 10D) | Crystal Form ([1]; 40°C/75% RH, 10D) | Purity ([1]; 40°C/75% RH, 10D) [%] | Appearance ([1]; 40°C/75% RH, 30D) | Crystal Form ([1]; 40°C/75% RH, 30D) | other results |
| --- | --- | --- | --- | --- | --- | --- | --- | --- | --- | --- | --- | --- | --- | --- | --- | --- | --- | --- | --- | --- | --- |
| Clc1cccc([C@@]23CCCC[C@H]2OCCN3)c1 [Crystal Form A of Compound 2 hydrochloride] | Dry white solid powder | Crystal Form A | 99.99 | White solid powder | Crystal Form A | 99.99 | White solid powder | Crystal Form A | 99.99 | White solid powder | Crystal Form A | 99.99 | White solid powder | Crystal Form A | 99.99 | White solid powder | Crystal Form A | 99.99 | White solid powder | Crystal Form A | Purity ([1]; 40°C/75% RH, 30D): 99.98%; Appearance ([1]; 60°C, 5D): White solid powder; Crystal Form ([1]; 60°C, 5D): Crystal Form A; Purity ([1]; 60°C, 5D): 99.98%; Appearance ([1]; 60°C, 10D): White solid powder; Crystal Form ([1]; 60°C, 10D): Crystal Form A; Purity ([1]; 60°C, 10D): 99.99%; Appearance ([1]; 60°C, 30D): White solid powder; Crystal Form ([1]; 60°C, 30D): Crystal Form A; Purity ([1]; 60°C, 30D): 99.99%; NOAEL dosage (mg/kg) (score 0) (C57BL/6J male mice [2]; about one hour observation): 44 mg/kg; NOAEL doses (C57BL/6J male mice [2]): higher than that of Comparative Compound 2-SS mesylate; STD10 (mg/kg) (score 8) (C57BL/6J male mice [2]): 263 mg/kg; distance traveled by the mice (C57BL/6J male mice [3]): no significant difference |
| Clc1cccc([C@@]23CCCC[C@H]2OCCN3)c1 [Crystal Form C of Compound 2 mesylate] | Dry white solid powder | Crystal Form C | 99.97 | White solid powder | Crystal Form C | 99.99 | White solid powder | Crystal Form C | 99.99 | White solid powder | Crystal Form C | 99.99 | White solid powder | Crystal Form C | 99.96 | White solid powder | Crystal Form C | 99.99 | White solid powder | Crystal Form C | Purity ([1]; 40°C/75% RH, 30D): 99.99%; Appearance ([1]; 60°C, 5D): White solid powder; Crystal Form ([1]; 60°C, 5D): Crystal Form C; Purity ([1]; 60°C, 5D): 99.97%; Appearance ([1]; 60°C, 10D): White solid powder; Crystal Form ([1]; 60°C, 10D): Crystal Form C; Purity ([1]; 60°C, 10D): 99.95%; Appearance ([1]; 60°C, 30D): White solid powder; Crystal Form ([1]; 60°C, 30D): Crystal Form C; Purity ([1]; 60°C, 30D): 99.98%; NOAEL dosage (mg/kg) (score 0) (C57BL/6J male mice [2]; about one hour observation): 60 mg/kg; Minimum toxic dose (mg/kg) (score 1) (C57BL/6J male mice [2]; about one hour observation, epilepsy-like behavior score 1): 75 mg/kg; NOAEL doses (C57BL/6J male mice [2]): higher than that of Comparative Compound 2-SS mesylate; minimum toxic dose (score 1) (C57BL/6J male mice [2]; compared with Comparative Compounds 2-SS and 2-RR): significantly higher than those of the two Comparative Compounds 2-SS and 2-RR; STD10 (mg/kg) (score 8) (C57BL/6J male mice [2]): 275 mg/kg; distance traveled by the mice (C57BL/6J male mice [3]): no significant difference |

Where a name gives a salt, the structure may show the parent alone.
